Source: US20260174910A1, “POROUS EXPANDING BIOCOMPATIBLE SCAFFOLDS” (DANMARKS TEKNISKE UNIVERSITET, priority 2022, published 2026)

Test: Lipids/surfactants in ECell: solubility and expansion in PBS (images)
Type: physicochemical
Settings: 1% w/w (RGD lipids 0.1%), with and without 2.5% CAB polymer
Procedure: Different surfactants were formulated in expandable (w CAB, Mn 12000) vs non-expandable (w GTH) ECell formulations in a concentration of 1% w/w. Base formulations used: LOIB:CAB:DMSO:Surfactant 66.5:2.5:30:1 (expandable) and LOIB:GTH:DMSO:Surfactant (69:10:20:1) (non-expandable), except formulations with RGD lipids where 0.1% surfactant and 0.9% extra DMSO was added. […] Gel formulations containing each surfactant were prepared in 600 mg aliquots. Only soluble formulations were injected as gel depots into PBS.
Duplicates consisting of 100 μL gel depots of each ECell formulation were injected into 2 mL PBS buffer. Samples were incubated at 37° C., and images of a non-expandable vs an expandable ECell containing the same surfactant side-by-side were taken at 1.5 h and 2 days and 7 days post injection to investigate and document surfactant effects on ECell expansion.

appearance of ECell compositions containing the lipid/surfactant: Homogeneous
SMILES: CCCCCCCC/C=C\CCCCCCCC(=O)O [Oleic acid]
